Experimental data as given in US20220339116A1, “LIPID NANOPARTICLES AS ORAL VEHICLES OF IMMUNOTHERAPY” (The Johns Hopkins University, priority 2019, published 2022).

Tested on: C57BL/6 to BALB/c heart transplants
Test: Full MHC mismatch mouse heart transplantation model
Format: in vivo
Source text: FIGS. 1A-1B. ECoB promotes transplant survival via accumulation of Treg and inhibition of TH1 cells. TA, Survival curves of B6 to BALB/c heart transplants subjected to the treatment indicated. CTLA4-Ig administered on days 0, 2, 4, and 6. Tofa dosed daily from POD −1 to POD9. n=4-5 for each group. […] 1B, Profile of graft infiltrating CD4 T cells and of the production of IFN-γ by splenic T cells stimulated ex vivo with PMA/Inonmycin. Representative of 3 recipients.
The feasibility of combining CTLA4-Ig with a short-course Tofa administration in a full MHC mismatch (C57BL/6 to BALB/c) mouse heart transplantation model was tested (FIG. 1A). […] This improvement was evident even in mice receiving hearts kept ischemic for 4 h before transplantation—a more clinically relevant scenario—where CTLA4-Ig efficacy is undermined by early accumulation of inflammatory mediators^67 (MST untreated: 9d, CTLA4-Ig only: 26.5d, Tofa+CTLA4-Ig: 150d).

With “CTLA4-Ig: a recombinant version of the co-regulatory molecule CTLA4 that sequesters the CD28 ligands CD80 and CD86; abatacept” the “MST (heart transplant survival)” value (C57BL/6 to BALB/c, CTLA4-Ig on days 0, 2, 4, 6, Tofa short course (10 days)) was 36 days and the “MST (heart transplant survival)” value (hearts kept ischemic for 4 h before transplantation) was 26.5 days.
